Assay results reported in ChEMBL document CHEMBL2163237, “Molecular determinants of selectivity and efficacy at the dopamine D3 receptor” (J Med Chem, 2012).

Amino acid sequences for entries named in this document (tags omitted).
UniProt P14416, whole entry: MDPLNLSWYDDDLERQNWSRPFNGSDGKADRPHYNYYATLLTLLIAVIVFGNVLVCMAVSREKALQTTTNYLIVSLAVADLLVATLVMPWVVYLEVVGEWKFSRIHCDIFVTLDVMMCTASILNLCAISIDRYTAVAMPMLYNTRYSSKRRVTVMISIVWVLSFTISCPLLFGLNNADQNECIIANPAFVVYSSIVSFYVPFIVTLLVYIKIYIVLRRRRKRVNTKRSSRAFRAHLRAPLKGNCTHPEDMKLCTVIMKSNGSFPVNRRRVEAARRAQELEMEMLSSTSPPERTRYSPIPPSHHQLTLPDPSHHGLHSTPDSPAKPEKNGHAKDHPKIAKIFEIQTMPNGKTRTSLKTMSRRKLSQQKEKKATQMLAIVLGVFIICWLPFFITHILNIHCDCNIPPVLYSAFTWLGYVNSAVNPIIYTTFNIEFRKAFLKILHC

Target: D(2) dopamine receptor (Homo sapiens, UniProt P14416)
Assay: Displacement of [125I]IABN from human D2L receptor expressed in HEK293 cells after 60 mins by gamma counting analysis
Assay type: cell-based

Q: `CCCCNC(=O)c1cc2ccccc2[nH]1` was tested. Which Ki did it give?
A: The Ki was 13.6 µM.
